Source: patent publication US6794384B1, “Hydroxylation activated drug release” (De Montfort University, priority 1998, dated 2004)
pIC50: −log10 of the molar value.

Columns and labels:
[1] = test system: V79mzhu1B1 cells (V791B1 Cells); details: for fold more cytotoxic against the cell line expressing CYP1B1: CYP1B1 expressing versus non-expressing cell line, from Table 1
V79mz cells (V79 Cells) = details: read-out: Growth Inhibition of Cells not Expressing CYP1B1, IC50, V79 Cells, MTT, 48 hours incubation, ± 2%

Row | Substance | fold more cytotoxic against the cell line expressing CYP1B1 [1] | Selectivity Factor ([1]; V79 Cells versus V791B1 Cells) | pIC50 ([1]; read-out: Growth Inhibition of Cells Expressing CYP1B1, IC50, V791B1 Cells, V791B1 cells expressing CYP1B1, MTT, 48 hours incubation, ± 2%) | pIC50 (V79mz cells (V79 Cells))
1 | 3,5-Dimethoxybenzyl/Mustard Prodrug [XIX] | 3 fold | 3.1 | 6.00 | 5.51
2 | 3-Methoxybenzyl/Mustard Prodrug [XVIII] | 3 fold |  |  | 
